Literature values as cited in publication PMC4525192 (European Journal of Nuclear Medicine and Molecular Imaging, 2014).

Conditions: in vivo

B1: 90Y-Zevalin: 90Yttrium-ibritumomab tiuxetan (title of ref 40) (conjugate, chains of the INN, looked up)
heavy: QAYLQQSGAELVRPGASVKMSCKASGYTFTSYNMHWVKQTPRQGLEWIGAIYPGNGDTSYNQKFKGKATLTVDKSSSTAYMQLSSLTSEDSAVYFCARVVYYSNSYWYFDVWGTGTTVTVSAPSVYPLAPVCGDTTGSSVTLGCLVKGYFPEPVTLTWNSGSLSSGVHTFPAVLQSDLYTLSSSVTVTSSTWPSQSITCNVAHPASSTKVDKKIEPRGPTIKPCPPCKCPAPNLLGGPSVFIFPPKIKDVLMISLSPIVTCVVVDVSEDDPDVQISWFVNNVEVHTAQTQTHREDYNSTLRVVSALPIQHQDWMSGKEFKCKVNNKDLPAPIERTISKPKGSVRAPQVYVLPPPEEEMTKKQVTLTCMVTDFMPEDIYVEWTNNGKTELNYKNTEPVLDSDGSYFMYSKLRVEKKNWVERNSYSCSVVHEGLHNHHTTKSFSR
light: QIVLSQSPAILSASPGEKVTMTCRASSSVSYMHWYQQKPGSSPKPWIYAPSNLASGVPARFSGSGSGTSYSLTISRVEAEDAATYYCQQWSFNPPTFGAGTKLELKRADAAPTVFIFPPSDEQLKSGTASVVCLLNNFYPREAKVQWKVDNALQSGNSQESVTEQDSKDSTYSLSSTLTLSKADYEKHKVYACEVTHQGLSSPVTKSFN
modifications: tiuxetan chelator, 90Y
Mean latency of MDS/AML: 4.8 years | Patients with MDS/AML during long-term follow-up: 4.2%
